In data set [1] the test system is rat mesangial cells (1097/IRMC cells). Put plainly: MTS tetrazolium reduction cell viability assay. The conditions noted are these: TGF-β1 stimulated IRMC cells, vs 1% DMSO vehicle. A general note: Tetrazolium dyes change colour on reduction, which living cells bring about.
The test system of data set [2] is TGF-β induced [14C]-proline incorporation in rat mesangial cells. Briefly: [14C]-proline incorporation assay (collagen biosynthesis). The data set is classed as cell-based. The settings on record: inhibition of TGF-β1 (1 ng/ml) induced [14C]-proline incorporation, IRMC cells, 44 hours.

Only a part of the results on these compounds is given; other tests are left out.

On to `C#CCOc1ccc(/C=C/C(=O)N[C@H]2CCCC[C@@H]2N)cc1OC`, for which, in data set [1], the 50% cytotoxic concentration (CC50) is 96.4 µM. For the same compound, the concentration for half-maximal inhibition (IC50) in data set [2] was 36 µM.

One may read the CC50 as the concentration giving 50% cytotoxicity. Low values mean harm at low concentration, high ones better tolerance by the cells. By IC50 is commonly meant the concentration at which inhibition is half-maximal.

These data come from US11603349B2, “Anti-fibrotic compounds” (Certa Therapeutics Pty Ltd, priority 2017, dated 2023).
